Molecules are shown by their SMILES. pIC50: −log10 of the molar value.

In one experiment the target is hepatitis C virus RNA dependant polymerase (NS5B) (Hepatitis C virus genotype 1b, UniProt P26663). Put plainly: biochemical. The following applies: IC50, HCV NS5B polymerase, 10 nM enzyme, 1.5 hours at room temperature.
A word on the pIC50: it is −log10 of the IC50, conventionally taken in molar units. Regarding `Cc1c(C(=O)O)sc2ccc(NC(=O)C3(NC(=O)c4ccc5c(C6CCCCC6)c(-c6ccccn6)n(C)c5c4)CCC3)cc12` [Entry 2111], the pIC50 is more than 6.30.

`CC(C)(NC(=O)c1ccc2c(C3CCCCC3)c(-c3ccccc3)[nH]c2c1)C(=O)Nc1ccc(-c2nc(C(=O)O)cs2)cc1` [Entry 2018]: the pIC50 was 6.00 to 6.30.

`CC(=O)Nc1ccc(-c2c(C3CCCC3)c3ccc(C(=O)NC(C)(C)C(=O)Nc4cccc5c4cc(C(=O)O)n5C)cc3n2C)cc1C` [Entry 1006] showed a pIC50 of more than 6.30.

Regarding `CC(C)(NC(=O)c1ccc2c(C3CCCCC3)c(-c3ccoc3)[nH]c2c1)C(=O)Nc1ccc(-c2ccc(C(=O)O)o2)cc1` [Entry 2053], the pIC50 is more than 6.30.

Molecule `CNC(=O)c1coc(C(C)(C)NC(=O)c2ccc3c(C4CCCC4)c(-c4ccccn4)n(C)c3c2)n1` [Entry 1029] showed a pIC50 of 6.00 to 6.30.

`O=C(NC1(C(=O)Nc2ccc3c(Cl)c(C(=O)O)sc3c2)CCCC1)c1ccc2c(C3CCCCC3)c(-c3ccoc3)[nH]c2c1` [Entry 2013]: the pIC50 was 6.00 to 6.30.

For `COc1ccc(CNC(=O)c2ccc3c(C4CCCCC4)c(-c4ccccn4)[nH]c3c2)cc1OC` [Entry 1019], the pIC50 was 5.00 to 6.00.

The molecule `O=C(O)/C=C/c1ccc(NC(=O)C2(NC(=O)c3ccc4c(C5CCCCC5)c(-c5ccoc5)[nH]c4c3)CCC2)cc1` [Entry 2057] gave a pIC50 of more than 6.30.

Molecule `O=C(O)/C=C/c1ccc(NC(=O)C2(NC(=O)c3ccc4c(C5CCCCC5)c(-c5ccccc5)[nH]c4c3)CCCC2)cc1` [Entry 4002] showed a pIC50 of 6.00 to 6.30.

On to `O=C(O)Cn1cnc2ccc(NC(=O)C3(NC(=O)c4ccc5c(C6CCCCC6)c(-c6ccoc6)[nH]c5c4)CCCC3)cc21` [Entry 2016], for which the pIC50 is 5.00 to 6.00.

With `CC(C)(NC(=O)c1ccc2c(C3CCCCC3)c(-c3ccsc3)[nH]c2c1)C(=O)Nc1ccc(-c2nc(C(=O)O)cs2)cc1` [Entry 2019], the pIC50 was 6.00 to 6.30.

Molecule `Cc1c(C(=O)O)sc2ccc(NC(=O)C3(NC(=O)c4ccc5c(C6CCCCC6)c(-c6ccoc6)[nH]c5c4)CCCC3)cc12` [Entry 2046] showed a pIC50 of more than 6.30.

With `CCN1CCC(NC(=O)c2ccc3c(C4CCCCC4)c(-c4ccccn4)n(C)c3c2)(C(=O)Nc2ccc3c(c2)cc(C(=O)O)n3C)CC1` [Entry 2092], the pIC50 is more than 6.30.

In the case of `CC(C)(NC(=O)c1ccc2c(C3CCCC3)c(-c3ccoc3)sc2c1)C(=O)Nc1ccc(/C=C/C(=O)O)cc1` [Entry 8004], the pIC50 is more than 6.30.

`Cc1c(C(=O)O)sc2ccc(NC(=O)[C@]3(NC(=O)c4ccc5c(C6CCCC6)c(-c6ccccn6)n(C)c5c4)CCN(C)C3)cc12` [Entry 1013] showed a pIC50 of more than 6.30.

Regarding `Cn1c(-c2ccccn2)c(C2CCCCC2)c2ccc(C(=O)NC(C)(C)C(=O)Nc3ccc(-c4nc(C(=O)O)cs4)cc3)cc21` [Entry 2071], the pIC50 was more than 6.30.

`O=C(O)/C=C/c1ccc(NC(=O)C2(NC(=O)c3ccc4c(C5CCCC5)c(-c5ccccn5)sc4c3)CCC2)cc1` [Entry 8001] gave a pIC50 of 5.00 to 6.00.

For the molecule `C=CCn1c(C(=O)O)cc2cc(NC(=O)[C@@H](C)NC(=O)c3ccc4c(C5CCCCC5)c(-c5ccoc5)[nH]c4c3)ccc21` [Entry 2011], the pIC50 is 6.00 to 6.30.

Take `C/C(=C\C(=O)O)c1ccc(NC(=O)C2(NC(=O)c3ccc4c(C5CCCCC5)c(-c5ccoc5)[nH]c4c3)CCCC2)cc1` [Entry 2056]: the pIC50 is more than 6.30.

Consider `O=C(O)/C=C/c1ccc(NC(=O)C2(NC(=O)c3ccc4c(C5CCCCC5)c(-c5ccsc5)[nH]c4c3)CCCC2)cc1` [Entry 2038], for which the pIC50 was more than 6.30.

Molecule `O=C(O)/C=C/c1ccc(NC(=O)C2(NC(=O)c3ccc4c(C5CCCCC5)c(-c5ccoc5)[nH]c4c3)CCOCC2)cc1` [Entry 2069] gave a pIC50 of more than 6.30.

Molecule `CC(C)N1CCC(NC(=O)c2ccc3c(C4CCCCC4)c(-c4ccoc4)[nH]c3c2)(C(=O)Nc2ccc(/C=C/C(=O)O)cc2)CC1` [Entry 2086] showed a pIC50 of more than 6.30.

The experiment is the same for the next values; noted with them: IC50, Table 6.
For the molecule `CN1CCC(NC(=O)c2ccc3c(C4CCCC4)c(-c4nccs4)n(C)c3c2)(C(=O)Nc2ccc(/C=C/C(=O)O)cc2)CC1` [Entry 6101], the pIC50 was more than 6.30.

`CCNc1nc(-c2c(C3CCCC3)c3ccc(C(=O)NC(C)(C)C(=O)Nc4ccc(/C=C/C(=O)O)cc4)cc3n2C)cs1` [Entry 6010] had a pIC50 of more than 6.30.

In turn, `Cn1c(-c2csc(NC3CCCC3)n2)c(C2CCCC2)c2ccc(C(=O)NC(C)(C)C(=O)Nc3ccc(/C=C/C(=O)O)cc3)cc21` [Entry 6033] had a negative-log IC50 (pIC50) of 6.00 to 6.30.

As to `COCCNc1nc(-c2c(C3CCCC3)c3ccc(C(=O)NC4(C(=O)Nc5ccc(/C=C/C(=O)O)cc5)CCCC4)cc3n2C)cs1` [Entry 6092], the pIC50 is more than 6.30.

Molecule `Cn1c(-c2csc(NC(=O)C(C)(C)C)n2)c(C2CCCC2)c2ccc(C(=O)NC3(C(=O)Nc4ccc(/C=C/C(=O)O)cc4)CCC3)cc21` [Entry 6081] had a pIC50 of more than 6.30.

As for `Cn1c(-c2ccsc2)c(C2CCCC2)c2ccc(C(=O)NC3(C(=O)Nc4ccc(/C=C/C(=O)O)cc4)CCCC3)cc21` [Entry 6055], the pIC50 was more than 6.30.

As for `Cc1cccc(-c2c(C3CCCC3)c3ccc(C(=O)NC4(C(=O)Nc5ccc(/C=C/C(=O)O)cc5)CCN(C)CC4)cc3n2C)n1` [Entry 6058], the pIC50 is more than 6.30.

`Cc1nc(-c2c(C3CCCC3)c3ccc(C(=O)NC4(C(=O)Nc5ccc(/C=C/C(=O)O)cc5)CCCC4)cc3n2C)cs1` [Entry 6090] showed a pIC50 of more than 6.30.

On to `Cc1cccc(-c2c(C3CCCC3)c3ccc(C(=O)NC4(C(=O)Nc5ccc(/C=C/C(=O)O)cc5)CCC4)cc3n2C)n1` [Entry 6069], for which the pIC50 is more than 6.30.

For the molecule `Cn1c(-c2cccc(N)n2)c(C2CCCC2)c2ccc(C(=O)NC3(C(=O)Nc4ccc(/C=C/C(=O)O)cc4)CC3)cc21` [Entry 6037], the pIC50 is more than 6.30.

Molecule `Cn1c(-c2ccc(N)cc2)c(C2CCCC2)c2ccc(C(=O)NC3(C(=O)Nc4ccc(/C=C/C(=O)O)cc4)CCCC3)cc21` [Entry 6053] showed a pIC50 of more than 6.30.

As for `Cc1ccc(-c2c(C3CCCC3)c3ccc(C(=O)NC4(C(=O)Nc5ccc(/C=C/C(=O)O)cc5)CCN(C)CC4)cc3n2C)cn1` [Entry 6062], the pIC50 is more than 6.30.

Take `Cc1nc(-c2c(C3CCCC3)c3ccc(C(=O)NC4(C(=O)Nc5ccc(/C=C/C(=O)O)cc5)CCC4)cc3n2C)cs1` [Entry 6075]: the negative logarithm of the IC50 (pIC50) was more than 6.30.

Consider `Cn1c(-c2csc(NC(=O)OC3CCCC3)n2)c(C2CCCC2)c2ccc(C(=O)NC(C)(C)C(=O)Nc3ccc(/C=C/C(=O)O)cc3)cc21` [Entry 6030], for which the pIC50 is 6.00 to 6.30.

`Cn1c(-c2csc(NC(=O)C(C)(C)C)n2)c(C2CCCC2)c2ccc(C(=O)NC(C)(C)C(=O)Nc3ccc(/C=C/C(=O)O)cc3)cc21` [Entry 6029] showed a pIC50 of more than 6.30.

Molecule `CC(=O)Nc1nc(-c2c(C3CCCC3)c3ccc(C(=O)NC4(C(=O)Nc5ccc(/C=C/C(=O)O)cc5)CCC4)cc3n2C)cs1` [Entry 6071] gave a pIC50 of more than 6.30.

As for `CN1CCC(NC(=O)c2ccc3c(C4CCCC4)c(-c4ccsc4)n(C)c3c2)(C(=O)Nc2ccc(/C=C/C(=O)O)cc2)CC1` [Entry 6056], the pIC50 was more than 6.30.

With `CC(C)C(=O)Nc1nc(-c2c(C3CCCC3)c3ccc(C(=O)NC4(C(=O)Nc5ccc(/C=C/C(=O)O)cc5)CCC4)cc3n2C)cs1` [Entry 6079], the pIC50 was more than 6.30.

Molecule `Cc1nc(-c2nc(-c3c(C4CCCC4)c4ccc(C(=O)NC(C)(C)C(=O)Nc5ccc(/C=C/C(=O)O)cc5)cc4n3C)cs2)cs1` [Entry 6018] gave a pIC50 of more than 6.30.

In the case of `Cn1c(-c2csc(NCCN3CCCCC3)n2)c(C2CCCC2)c2ccc(C(=O)NC(C)(C)C(=O)Nc3ccc(/C=C/C(=O)O)cc3)cc21` [Entry 6023], the pIC50 was more than 6.30.

`Cn1c(-c2csc(Nc3ccccn3)n2)c(C2CCCC2)c2ccc(C(=O)NC(C)(C)C(=O)Nc3ccc(/C=C/C(=O)O)cc3)cc21` [Entry 6015] gave a pIC50 of 6.00 to 6.30.

Turning to `Cn1c(-c2csc(N3CCCCC3)n2)c(C2CCCC2)c2ccc(C(=O)NC(C)(C)C(=O)Nc3ccc(/C=C/C(=O)O)cc3)cc21` [Entry 6016], the pIC50 is more than 6.30.

The same experiment, now with this note: IC50, Table 7.
`Cc1ccc(-c2c(C3CCCC3)c3ccc(C(=O)NC4(C(=O)Nc5ccc(-c6ccc(C(=O)O)o6)cc5)CCC4)cc3n2C)nc1` [Entry 7028] had a pIC50 of more than 6.30.

Regarding `Cn1c(-c2ccncc2)c(C2CCCC2)c2ccc(C(=O)NC3(C(=O)Nc4ccc(-c5ccc(C(=O)O)o5)cc4)CCCC3)cc21` [Entry 7041], the pIC50 was more than 6.30.

Molecule `Cn1c(-c2nccs2)c(C2CCCC2)c2ccc(C(=O)NC3(C(=O)Nc4ccc(-c5ccc(C(=O)O)o5)cc4)CCCC3)cc21` [Entry 7048] gave a pIC50 of more than 6.30.

Turning to `Cc1c(C(=O)O)sc2ccc(NC(=O)C3(NC(=O)c4ccc5c(C6CCCC6)c(-c6ccccn6)n(C)c5c4)CCC3)cc12` [Entry 7064], the pIC50 is more than 6.30.

In turn, `Cc1cccc(-c2c(C3CCCC3)c3ccc(C(=O)NC4(C(=O)Nc5ccc6c(c5)cc(C(=O)O)n6C)CCC4)cc3n2C)n1` [Entry 7023] showed a pIC50 of more than 6.30.

With `Cn1c(-c2ccccn2)c(C2CCCC2)c2ccc(C(=O)NC3(C(=O)Nc4ccc(-c5nnn[nH]5)cc4)CCC3)cc21` [Entry 7079], the pIC50 was more than 6.30.

Consider `CCc1ccnc(-c2c(C3CCCC3)c3ccc(C(=O)NC4(C(=O)Nc5ccc(-c6ccc(C(=O)O)o6)cc5)CCCC4)cc3n2C)c1` [Entry 7043], for which the pIC50 was 5.00 to 6.00.

In turn, `C/C(=C\c1ccc(NC(=O)C2(NC(=O)c3ccc4c(C5CCCC5)c(-c5ccc(C)cn5)n(C)c4c3)CCC2)cc1)C(=O)O` [Entry 7030] showed a pIC50 of more than 6.30.

With `Cn1c(C(=O)O)cc2cc(NC(=O)C3(NC(=O)c4ccc5c(C6CCCC6)c(-c6ccc(N)cc6)n(C)c5c4)CCC3)ccc21` [Entry 7051], the pIC50 is more than 6.30.

Molecule `Cc1ccc(-c2c(C3CCCC3)c3ccc(C(=O)NC4(C(=O)Nc5ccc(-c6ccc(C(=O)O)o6)cc5)CCCC4)cc3n2C)nc1` [Entry 7029] gave a pIC50 of more than 6.30.

The molecule `Cn1c(-c2ccccn2)c(C2CCCC2)c2ccc(C(=O)NC3(C(=O)Nc4ccc5oc(C(=O)O)cc5c4)CCC3)cc21` [Entry 7006] gave a pIC50 of more than 6.30.

As to `CC(C)N1CCC(NC(=O)c2ccc3c(C4CCCC4)c(-c4ccccn4)n(C)c3c2)(C(=O)Nc2ccc(C=CC(=O)O)cc2)C1` (centres unmarked) [Entry 7060], the pIC50 is more than 6.30.

Values taken from US20060160798A1, “Viral polymerase inhibitors” (Boehringer Ingelheim (Canada) Ltd., priority 2001, published 2006).
